Assay results from published antibiotic growth screens (doi:10.1038/s41589-023-01349-8).
Some of the results follow.

Each molecule was assayed on A. baumannii ATCC 17978 (assay: relative growth (fraction of control); higher = less inhibition). Conditions: 50 µM.

| Compound | relative growth |
| --- | --- |
| Nn1c(=S)[nH]c2cc(C(=O)O)ccc2c1=O | 0.91 |
| CC[C@H](C)C(=O)O[C@H]1C[C@@H](C)C=C2C=C[C@H](C)[C@H](CC[C@@H]3C[C@@H](O)CC(=O)O3)[C@H]21 | 0.78 |
| COc1cccc(NC(=O)N2C[C@H](O)COC[C@H]3O[C@H](CC(=O)NCc4ccccc4F)CC[C@@H]32)c1 | 1.18 |
| NCCS(=O)(=O)N1CCN(c2ccc(F)cc2)CC1 | 0.829 |
| COc1ccc(S(=O)(=O)N2C[C@@H](O)COC[C@H]3O[C@H](CC(=O)NCCN4CCCCC4)CC[C@@H]32)cc1 | 0.921 |
| COCC(=O)Nc1ccccc1C(=O)O | 1 |
| CO[C@@H]1CN(C)C(=O)c2ccc(NC(=O)C3CC3)cc2OC[C@H](C)N(C(=O)C2CCOCC2)C[C@H]1C | 1.16 |
| C[C@H]1COC(=O)[C@@H](CC(=O)OC(C)(C)C)CC=CC[C@@H](CC(=O)N[C@@H](CO)Cc2ccccc2)C(=O)N1 | 0.967 |
| CO[C@H](CN(C)S(=O)(=O)c1cccc(Cl)c1)[C@@H](C)CN([C@@H](C)CO)S(=O)(=O)c1ccc(Cl)cc1 | 0.909 |
| C[C@@H]1CN([C@H](C)CO)S(=O)(=O)c2ccc(C#CC3CCCC3)cc2O[C@H]1CN(C)Cc1cncnc1 | 0.633 |
| Cc1cc(C)nc(NS(=O)(=O)c2ccc(NC(=O)c3cccn(OCc4ccc(F)cc4)c3=O)cc2)n1 | 0.998 |
| CC1(C)CC[C@]2(C(=O)O)CC[C@]3(C)C(=CCC4[C@@]5(C)CC[C@H](O)[C@@](C)(CO)C5CC[C@]43C)C2C1 (stereo partly drawn) | 0.709 |
| NC1CCN(C(=O)c2c[nH]c3ccccc23)CC1 | 0.887 |
| C[C@H](CO)N1C[C@H](C)[C@H](CN(C)C(=O)Cc2ccccn2)Oc2cc(C#C[C@@H](C)O)ccc2S1(=O)=O | 1.04 |
| NC(=O)N1C(=O)[C@H]2[C@H](C1=O)[C@H]1C=C(CCCO)[C@@H]2[C@@H](C2CC2)N1Cc1cc2c(cc1Br)OCO2 | 1.09 |
| COCC(=O)N1C[C@H](C)[C@H](OC)CN(C)C(=O)c2cc(NC(=O)c3cc(C)on3)ccc2OC[C@H]1C | 0.965 |
| CC(=O)N[C@@H](CS)C(=O)O | 0.988 |
| C=CCOC(=O)[C@@H]1[C@H]2C(=O)O[C@H](c3ccccc3)[C@H](c3ccccc3)N2[C@H](c2ccc(OCCOC(=O)[C@H]3C[C@H]4C(=O)NCC(=O)N4[C@H]3c3cccc(OCCO)c3)cc2)[C@@]12C(=O)Nc1ccc(I)cc12 | 1.13 |
| NCc1ccccc1Sc1ccccc1CO | 0.816 |
| O=C(C[C@@H]1CC[C@@H]2[C@H](COC[C@@H](O)CN2C(=O)c2ccncc2)O1)NC1CCC1 | 0.901 |
| Cc1cc(NN)nc(SCC(=O)NN)n1 | 1.02 |
| c1ccc(-c2ccnc(-c3cc(-c4ccccc4)ccn3)c2)cc1 | 1.1 |

| Compound | relative growth |
| --- | --- |
| COc1cccc(NC(=S)NN)c1 | 0.933 |
| CN[C@H]1C[C@@H](N)[C@H](O)[C@@H](O[C@@H]2O[C@H](CO)[C@@H]3OC4(O[C@@H]3[C@@H]2O)O[C@H](C(N)CO)[C@H](O)[C@H](O)[C@H]4O)[C@@H]1O (stereo partly drawn) | 0.918 |
| CCCCN(CCCC)CCCOC(=O)c1ccc(N)cc1.O=S(=O)(O)O | 0.86 |
| COc1ccc(S(=O)(=O)N(C)C[C@@H]2Oc3ncc(Br)cc3C(=O)N([C@H](C)CO)C[C@@H]2C)cc1 | 1.11 |
| COc1cccc(-c2cc(=O)c3cc(OC)ccc3o2)c1 | 0.934 |
| COc1cccc(C#Cc2ccc3c(c2)O[C@H](CN(C)S(=O)(=O)c2ccccc2F)[C@@H](C)CN([C@@H](C)CO)S3(=O)=O)c1 | 1.21 |
| Cc1cn[nH]c1.Cl | 1.08 |
| C/N=C1\S[C@@H](CC(=O)NC(C)C)C(=O)N1C | 0.971 |
| COc1ccc(S(=O)(=O)N[C@H]2CC[C@@H](CCNC(=O)CN3CCOCC3)O[C@@H]2CO)cc1 | 0.936 |
| CCNC(=O)C[C@@H]1CC[C@@H](NC(=O)C2CC2)[C@@H](CO)O1 | 1.05 |
| C=CCN1C(=O)[C@]2(O[C@@H](CCOC(=O)NCCCCCC(=O)NO)[C@H]([Si](C)(C)c3ccc(OC)cc3)[C@H]2C)c2cc(I)ccc21 | 0.949 |
| CN(C)C(=O)C[C@H]1C=C[C@H](NC(=O)C2CCOCC2)[C@H](CO)O1 | 1.05 |
| Cl.NCC(=O)CCC(=O)O | 0.965 |
| Cc1nnc(SCC2=C(C(=O)[O-])N3C(=O)[C@@H](NC(=O)Cn4cnnn4)[C@H]3SC2)s1.[Na+] | 1.21 |
| O=c1cc(-c2ccccc2)oc2cc(O)c(O)c(O)c12 | 0.974 |
| CC(C)CCCC(C)N (stereo not drawn) | 1 |
| C[C@H](NC(=O)C[C@@H]1CC[C@H](NC(=O)CN2CCOCC2)[C@H](CO)O1)c1ccccc1 | 1.01 |
| Cc1cccc(NC(=O)C(=O)NCCCO)c1 | 0.985 |
| O=C1CCC(=O)N1c1nccs1 | 0.968 |
| O=C(C[C@@H]1CC[C@H](NS(=O)(=O)c2ccccc2F)[C@H](CO)O1)NCCCN1CCOCC1 | 0.967 |
| NC(=O)NCC#Cc1ccc2c(c1)[C@]1(C(=O)N2)[C@H](C(=O)N2CCCCCCC2)[C@H]2C(=O)O[C@H](c3ccccc3)[C@H](c3ccccc3)N2[C@@H]1c1ccccc1OCCO | 0.919 |
